Earlier results in PubChem BioAssay AID1811.

Assays:
Experiment in all cases: PubChem AID 1811
glycogen phosphorylase = conditions: PDB complex binding affinities from literature; Ki when reported
[1] = biological target: nucleoside diphosphate kinase; conditions: PDB complex binding affinities from literature; Kd when reported
[2] = biological target: oligo-peptide binding protein; conditions: PDB complex binding affinities from literature; Kd when reported
thrombin alpha = conditions: PDB complex binding affinities from literature; for Ki: Ki when reported
alpha-mannosidase ii = conditions: PDB complex binding affinities from literature; for Ki: Ki when reported
[3] = biological target: glutamate [nmda] receptor; conditions: PDB complex binding affinities from literature; Ki when reported
thymidylate synthase = conditions: PDB complex binding affinities from literature; Ki when reported
penicillopepsin = conditions: PDB complex binding affinities from literature; Ki when reported
HIV-1 protease = conditions: PDB complex binding affinities from literature; Ki when reported
[4] = biological target: isopentenyl diphosphate delta-isomerase; conditions: PDB complex binding affinities from literature
trypsin beta = conditions: PDB complex binding affinities from literature
odorant-binding protein = conditions: PDB complex binding affinities from literature; IC50 when reported
[5] = biological target: purine nucleoside phosphorylase; conditions: PDB complex binding affinities from literature; Ki when reported
glycogen phosphorylase b = conditions: PDB complex binding affinities from literature; Ki when reported
[6] = biological target: cell division protein kinase 2; conditions: PDB complex binding affinities from literature; IC50 when reported
acetylcholinesterase = conditions: PDB complex binding affinities from literature
glutamate receptor 2 = conditions: PDB complex binding affinities from literature; Ki when reported
[7] = biological target: glutamate receptor subunit 2; conditions: PDB complex binding affinities from literature; IC50 when reported
carbonic anhydrase ii = conditions: PDB complex binding affinities from literature; for Kd: Kd when reported; for Ki: Ki when reported
[8] = biological target: aspartate aminotransferase; conditions: PDB complex binding affinities from literature; Kd when reported
[9] = biological target: calmodulin-sensitive adenylate cyclase; conditions: PDB complex binding affinities from literature; Ki when reported
[10] = biological target: urokinase-type plasminogen activator; conditions: PDB complex binding affinities from literature; Ki when reported
[11] = biological target: orotidine 5'-monophosphate decarboxylase; conditions: PDB complex binding affinities from literature; Ki when reported
mta/sah nucleosidase = conditions: PDB complex binding affinities from literature; Ki when reported

Compound: CC(=O)N[C@@H]1O[C@H](CO)[C@@H](O)[C@H](O)[C@H]1O
- Ki (glycogen phosphorylase): 32 µM

Compound: NC(=O)c1ncn([C@@H]2O[C@H](COP(=O)(O)OP(=O)(O)OP(=O)(O)O)[C@@H](O)[C@H]2O)n1
- Kd [1]: 24 µM

Compound: NCCCC[C@H](NC(=O)[C@H](CCCN=C(N)N)NC(=O)[C@@H](N)CCCCN)C(=O)O
- Kd [2]: 1.2 µM

Compound: Nc1ccc2cc3ccc(N)cc3nc2c1
- Kd (thrombin alpha; Kd when reported): 530 µM

Compound: O=C1N[C@@H]2[C@@H](O)[C@@H](O)[C@H](O)[C@@H](CO)N2C1=O
- Ki (alpha-mannosidase ii): 5200 µM

Compound: O=C(O)c1cc(=O)c2c(Cl)cc(Cl)cc2[nH]1
- Ki [3]: 0.54 µM

Compound: Nc1nc2[nH]cc(CCc3ccc(C(=O)N[C@@H](CCC(=O)O)C(=O)O)cc3)c2c(=O)[nH]1
- Ki (thymidylate synthase): 0.109 µM

Compound: OC[C@]1(F)OC[C@@H](O)[C@@H](O)[C@@H]1O
- Ki (alpha-mannosidase ii): 600 µM

Compound: CNC(=O)C(F)(F)[C@H](O)[C@H](CC(C)C)NC(=O)[C@@H](NC(=O)[C@@H](NC(=O)CC(C)C)C(C)C)C(C)C
- Ki (penicillopepsin): 0.01 µM

Compound: N#Cc1ccc(S(=O)(=O)Nc2cccc([C@@H](c3c(O)c4c(oc3=O)CCCCCC4)C3CC3)c2)cc1
- Ki (HIV-1 protease): 0.0006 µM

Compound: CN(C)CCOP(=O)(O)OP(=O)(O)O
- Kd ([4]; Kd when reported): < 0.00012 µM

Compound: COC(=O)[C@@H]1Cc2cccc(c2)CNC(=O)C[C@H](NC(=O)[C@@H](NC(=O)CC(C)C)C(C)C)C(=O)N[C@@H](CC(C)C)P(=O)(O)O1
- Ki (penicillopepsin): 0.0001 µM

Compound: N=C(N)c1ccc(/C=C2/CCCC/C(=C/c3ccc(C(=N)N)cc3)C2=O)cc1
- Ki (trypsin beta; Ki when reported): 1.25 µM

Compound: Cc1nc2ccc3ccc(CNc4ccc5c(c4)CN([C@@H](CCC(=O)O)C(=O)O)C5=O)cc3c2c(=O)[nH]1
- Ki (thymidylate synthase): 0.016 µM

Compound: O=C(OCc1ccccc1)c1ccccc1
- IC50 (odorant-binding protein): 3.9 µM

Compound: O=c1[nH]cnc2c(CN3C[C@H](CO)[C@@H](O)C3)c[nH]c12
- Ki [5]: 0.0013 µM

Compound: O=C1COc2ccc(Cl)cc2CNC(=O)[C@@H]2CCCN2C(=O)[C@@H](C2CCCCC2)NC(=O)CCN1
- Ki (thrombin alpha): 0.0013 µM

Compound: Cc1cc(NS(=O)(=O)c2ccccc2)cc(OCCNc2ccncc2)c1
- Ki (thrombin alpha): 0.023 µM

Compound: O[C@H]1[C@H]2[C@H](O)CCCN2C[C@H]1O
- IC50 (alpha-mannosidase ii; IC50 when reported): 0.02 µM

Compound: COC(=O)N[C@]1(C(N)=O)O[C@H](CO)[C@@H](O)[C@H](O)[C@H]1O
- Ki (glycogen phosphorylase b): 15.6 µM

Compound: Cc1nc(C)c(-c2ccnc(N)n2)s1
- IC50 [6]: 13 µM

Compound: O=c1ccc2c([nH]1)CCC[C@H]2NCCCCCCCCCCNc1c2c(nc3ccccc13)CCCC2
- IC50 (acetylcholinesterase; IC50 when reported): 0.0088 µM

Compound: NC1(C(=O)O)CC1
- Ki [3]: 4.8 µM

Compound: CC(C)[C@H]1CN[C@H](C(=O)O)[C@H]1CC(=O)O
- Ki (glutamate receptor 2): 0.662 µM
- IC50 [7]: 14.5 µM

Compound: N[C@@H](Cc1ccccc1)C(=O)NCCOCCOCCNC(=O)c1ccc(S(N)(=O)=O)cc1
- Kd (carbonic anhydrase ii): 0.014 µM

Compound: N#Cc1ccc(N(Cc2ccc(OS(N)(=O)=O)c(Br)c2)n2cnnc2)cc1
- Kd (carbonic anhydrase ii): 0.454 µM

Compound: CCC1=C[C@@H]2Cc3nc4cc(Cl)ccc4c(N)c3[C@H](C1)C2
- Ki (acetylcholinesterase; Ki when reported): 0.00013 µM

Compound: N[C@@H]1CONC1=O
- Ki [3]: 241 µM

Compound: NS(=O)(=O)C(F)(F)F
- Ki (carbonic anhydrase ii): 0.002 µM

Compound: COC(=O)[C@H](Cc1ccccc1)OP(=O)(O)[C@H](CC(C)C)NC(=O)[C@H](CC(N)=O)NC(=O)[C@@H](NC(=O)CC(C)C)C(C)C
- Ki (penicillopepsin): 0.042 µM

Compound: O=C(NC(=O)c1ccccc1)N[C@@H]1O[C@H](CO)[C@@H](O)[C@H](O)[C@H]1O
- Ki (glycogen phosphorylase): 4.6 µM

Compound: COC(=O)C1CCN(C(=O)[C@H](Cc2cccc(C(=N)N)c2)NS(=O)(=O)c2ccc3ccccc3c2)CC1
- Kd (trypsin beta; Kd when reported): 0.028 µM

Compound: O=C(O)CCCC(=O)O
- Kd [8]: 1500 µM

Compound: Nc1ncnc2c1ncn2[C@@H]1O[C@H](COP(=O)(O)CP(=O)(O)OP(=O)(O)O)[C@@H](O)[C@H]1O
- Ki [9]: 850 µM

Compound: CNS(=O)(=O)Cc1ccc(N=Nc2c(O)[nH]c3ccc4ncsc4c23)cc1
- IC50 [6]: 0.0057 µM

Compound: C[C@](O)(CBr)CCOP(=O)(O)OP(=O)(O)O
- Ki ([4]; Ki when reported): 1.4 µM

Compound: COc1ccc2ccc(C(=N)N)cc2c1C1CNN(S(C)(=O)=O)C1 (stereo unspecified)
- Ki [10]: 0.63 µM

Compound: O=c1cnn([C@@H]2O[C@H](COP(=O)(O)O)[C@@H](O)[C@H]2O)c(=O)[nH]1
- Ki [11]: 0.064 µM

Compound: NC(N)=NCCCC(=O)NC[C@@H]1CCCN1C(=O)[C@H](CO)NS(=O)(=O)c1ccc2ccccc2c1
- Ki (thrombin alpha): 0.079 µM

Compound: N=C(N)c1ccc([C@H]2[C@H]3C(=O)N(Cc4ccc(F)cc4)C(=O)[C@H]3[C@@H]3CCCN32)cc1
- Ki (thrombin alpha): 0.057 µM

Compound: Nc1nc2c(ncn2COCCO)c(=O)[nH]1
- Ki [5]: 90 µM

Compound: NC(CO)(CO)CO
- Ki (carbonic anhydrase ii): 12 µM

Compound: CSC[C@H]1CN(Cc2c[nH]c3c(N)ncnc23)C[C@@H]1O
- Ki (mta/sah nucleosidase): 2 pM

Compound: O=c1[nH]c2cc([N+](=O)[O-])c([N+](=O)[O-])cc2[nH]c1=O
- IC50 [7]: 0.998 µM

Compound: O=c1[nH]cnc2c([C@@H]3O[C@H](CO)[C@@H](O)[C@H]3O)[nH]nc12
- Ki [5]: 5 µM
